In US20100233131A1, “SELENIUM DEDIFFERENTIATED CELL, PREPARATION METHOD AND USAGE THEREOF” (PUSAN NATIONAL UNIVERSITY INDUSTRY-UNIVERSITY COOP, priority 2008, published 2010):

Columns and labels:
[1] = test system: ATSCs; test: Cell migration assay using transwell membrane in vitro; assay type: cell-based, human; conditions: 5 ng/ml selenium 3 days, vs control ATSCs, time-dependent
Method: The cells were then treated with selenium (5 ng/ml) for 3 days. The cultured cells were transferred into Costar transwell membrane (8 μm pore size), and placed on 6-well plates. Under the membrane, selenium and a 2% FBS-containing α-MEM medium were added to each well. In an upper chamber, the cells were incubated in a 2% FBS-containing α-MEM medium at 37° C. for 2 hours, and the plates were incubated overnight at 37° C. in a CO2 incubator. The cells on the lower surface of the plate were dried, counterstained with Harris hematoxylin for 20 minutes, and then washed. The stained inserts were placed on an object slide, and the number of cells was counted under a 200× inverted bright field microscope. The cell counts were repeatedly estimated to ten bright fields under the 200× microscope, and their average was calculated. The migration was represented as the count of cells per field of the spontaneous migration which was non-specifically determined.

[2] = test system: ATSCs; test: Oligonucleotide microarray analysis of gene expression; assay type: cell-based, human; conditions: control ATSCs vs selenium-treated ATSCs
Method: To confirm the pattern of gene expression, oligonucleotide microarray analysis was performed.

[3] = test system: adipose tissue stromal cells (ATSCs); test: Cell viability / proliferation of ATSCs by trypan blue exclusion

## O=[Se]([O-])[O-].[Na+].[Na+] [selenium, sodium selenite]
[1]
  migration efficiency: significantly increased
[2]
  share of total genes with more than 2.2-fold difference in expression level: less than 6%
[3]
  concentration of selenium that induces cytotoxicity: more than 20 ng/ml
[3]; 5 ng/ml selenium for 3 days, trypan blue exclusion
  proliferation efficiency of the ATSCs: significant increase
